# In the Human Domainome abundance scans (Beltran et al. 2025):
# B1: Tyrosine-protein kinase ABL1, residues 64 to 120; numbered along this chain, P00519 (parent)
# chain: NLFVALYDFVASGDNTLSITKGEKLRVLGYNHNGEWCEAQTKNGQGWVPSNYITPVN
# Variants of: B1
# Experiment: abundance fitness (aPCA) (normalised: wild type 0, dead -1); higher = more abundant; growth selection in yeast, the domain comes from the species named
# Conditions: Homo sapiens
row,Variant,abundance fitness
1,NLFVALFDFVASGDNTLSITKGEKLRVLGYNHNGEWCEAQTKNGQGWVPSNYITPVN [Y7F],0.089 ± 0.077
2,NLFVALGDFVASGDNTLSITKGEKLRVLGYNHNGEWCEAQTKNGQGWVPSNYITPVN [Y7G],-0.002 ± 0.07
3,NLFVALHDFVASGDNTLSITKGEKLRVLGYNHNGEWCEAQTKNGQGWVPSNYITPVN [Y7H],0.009 ± 0.16
4,NLFVALIDFVASGDNTLSITKGEKLRVLGYNHNGEWCEAQTKNGQGWVPSNYITPVN [Y7I],0.076 ± 0.16
5,NLFVALKDFVASGDNTLSITKGEKLRVLGYNHNGEWCEAQTKNGQGWVPSNYITPVN [Y7K],0.261 ± 0.11
6,NLFVALMDFVASGDNTLSITKGEKLRVLGYNHNGEWCEAQTKNGQGWVPSNYITPVN [Y7M],-0.132 ± 0.11
7,NLFVALNDFVASGDNTLSITKGEKLRVLGYNHNGEWCEAQTKNGQGWVPSNYITPVN [Y7N],-0.006 ± 0.17
8,NLFVALPDFVASGDNTLSITKGEKLRVLGYNHNGEWCEAQTKNGQGWVPSNYITPVN [Y7P],-0.943 ± 0.15
9,NLFVALQDFVASGDNTLSITKGEKLRVLGYNHNGEWCEAQTKNGQGWVPSNYITPVN [Y7Q],0.051 ± 0.12
10,NLFVALRDFVASGDNTLSITKGEKLRVLGYNHNGEWCEAQTKNGQGWVPSNYITPVN [Y7R],0.199 ± 0.077
11,NLFVALTDFVASGDNTLSITKGEKLRVLGYNHNGEWCEAQTKNGQGWVPSNYITPVN [Y7T],-0.052 ± 0.078
12,NLFVALVDFVASGDNTLSITKGEKLRVLGYNHNGEWCEAQTKNGQGWVPSNYITPVN [Y7V],-0.036 ± 0.076
13,NLFVALYAFVASGDNTLSITKGEKLRVLGYNHNGEWCEAQTKNGQGWVPSNYITPVN [D8A],-0.065 ± 0.068
14,NLFVALYCFVASGDNTLSITKGEKLRVLGYNHNGEWCEAQTKNGQGWVPSNYITPVN [D8C],-0.494 ± 0.11
15,NLFVALYEFVASGDNTLSITKGEKLRVLGYNHNGEWCEAQTKNGQGWVPSNYITPVN [D8E],-0.175 ± 0.077
16,NLFVALYGFVASGDNTLSITKGEKLRVLGYNHNGEWCEAQTKNGQGWVPSNYITPVN [D8G],-0.33 ± 0.065
17,NLFVALYKFVASGDNTLSITKGEKLRVLGYNHNGEWCEAQTKNGQGWVPSNYITPVN [D8K],-0.333 ± 0.13
18,NLFVALYLFVASGDNTLSITKGEKLRVLGYNHNGEWCEAQTKNGQGWVPSNYITPVN [D8L],-0.956 ± 0.094
19,NLFVALYMFVASGDNTLSITKGEKLRVLGYNHNGEWCEAQTKNGQGWVPSNYITPVN [D8M],-0.883 ± 0.081
20,NLFVALYNFVASGDNTLSITKGEKLRVLGYNHNGEWCEAQTKNGQGWVPSNYITPVN [D8N],-0.064 ± 0.074
21,NLFVALYPFVASGDNTLSITKGEKLRVLGYNHNGEWCEAQTKNGQGWVPSNYITPVN [D8P],-0.109 ± 0.084
22,NLFVALYQFVASGDNTLSITKGEKLRVLGYNHNGEWCEAQTKNGQGWVPSNYITPVN [D8Q],-0.11 ± 0.13
23,NLFVALYRFVASGDNTLSITKGEKLRVLGYNHNGEWCEAQTKNGQGWVPSNYITPVN [D8R],-0.444 ± 0.059
24,NLFVALYSFVASGDNTLSITKGEKLRVLGYNHNGEWCEAQTKNGQGWVPSNYITPVN [D8S],-0.105 ± 0.069

row,Variant,abundance fitness
1,NLFVALYTFVASGDNTLSITKGEKLRVLGYNHNGEWCEAQTKNGQGWVPSNYITPVN [D8T],-0.051 ± 0.095
2,NLFVALYVFVASGDNTLSITKGEKLRVLGYNHNGEWCEAQTKNGQGWVPSNYITPVN [D8V],-1.18 ± 0.17
3,NLFVALYWFVASGDNTLSITKGEKLRVLGYNHNGEWCEAQTKNGQGWVPSNYITPVN [D8W],-0.843 ± 0.11
4,NLFVALYDAVASGDNTLSITKGEKLRVLGYNHNGEWCEAQTKNGQGWVPSNYITPVN [F9A],-0.051 ± 0.083
5,NLFVALYDCVASGDNTLSITKGEKLRVLGYNHNGEWCEAQTKNGQGWVPSNYITPVN [F9C],-0.015 ± 0.13
6,NLFVALYDDVASGDNTLSITKGEKLRVLGYNHNGEWCEAQTKNGQGWVPSNYITPVN [F9D],-0.834 ± 0.36
7,NLFVALYDEVASGDNTLSITKGEKLRVLGYNHNGEWCEAQTKNGQGWVPSNYITPVN [F9E],-0.796 ± 0.16
8,NLFVALYDGVASGDNTLSITKGEKLRVLGYNHNGEWCEAQTKNGQGWVPSNYITPVN [F9G],-0.704 ± 0.095
9,NLFVALYDHVASGDNTLSITKGEKLRVLGYNHNGEWCEAQTKNGQGWVPSNYITPVN [F9H],-0.467 ± 0.35
10,NLFVALYDIVASGDNTLSITKGEKLRVLGYNHNGEWCEAQTKNGQGWVPSNYITPVN [F9I],-0.066 ± 0.09
11,NLFVALYDKVASGDNTLSITKGEKLRVLGYNHNGEWCEAQTKNGQGWVPSNYITPVN [F9K],-0.239 ± 0.1
12,NLFVALYDLVASGDNTLSITKGEKLRVLGYNHNGEWCEAQTKNGQGWVPSNYITPVN [F9L],-0.042 ± 0.054
13,NLFVALYDMVASGDNTLSITKGEKLRVLGYNHNGEWCEAQTKNGQGWVPSNYITPVN [F9M],-0.242 ± 0.12
14,NLFVALYDNVASGDNTLSITKGEKLRVLGYNHNGEWCEAQTKNGQGWVPSNYITPVN [F9N],-0.444 ± 0.21
15,NLFVALYDPVASGDNTLSITKGEKLRVLGYNHNGEWCEAQTKNGQGWVPSNYITPVN [F9P],-0.953 ± 0.083
16,NLFVALYDQVASGDNTLSITKGEKLRVLGYNHNGEWCEAQTKNGQGWVPSNYITPVN [F9Q],-0.187 ± 0.088
17,NLFVALYDRVASGDNTLSITKGEKLRVLGYNHNGEWCEAQTKNGQGWVPSNYITPVN [F9R],-0.19 ± 0.086
18,NLFVALYDSVASGDNTLSITKGEKLRVLGYNHNGEWCEAQTKNGQGWVPSNYITPVN [F9S],-0.367 ± 0.075
19,NLFVALYDTVASGDNTLSITKGEKLRVLGYNHNGEWCEAQTKNGQGWVPSNYITPVN [F9T],-0.403 ± 0.15
20,NLFVALYDVVASGDNTLSITKGEKLRVLGYNHNGEWCEAQTKNGQGWVPSNYITPVN [F9V],0.033 ± 0.078
21,NLFVALYDWVASGDNTLSITKGEKLRVLGYNHNGEWCEAQTKNGQGWVPSNYITPVN [F9W],-0.105 ± 0.099
22,NLFVALYDYVASGDNTLSITKGEKLRVLGYNHNGEWCEAQTKNGQGWVPSNYITPVN [F9Y],-0.088 ± 0.32
23,NLFVALYDFAASGDNTLSITKGEKLRVLGYNHNGEWCEAQTKNGQGWVPSNYITPVN [V10A],-0.029 ± 0.089

# ± gives the uncertainty stated by the source.
